Reference: patent US20250325793A1, “INTRACALVARIOSSEOUS DRUG ADMINISTRATION DEVICE FOR DELIVERING DRUG BY BYPASSING BLOOD-BRAIN BARRIER” (GACHON UNIVERSITY OF INDUSTRY-ACADEMIC COOPERATION …, priority 2023, published 2025)

Assay: Plasma, brain interstitial fluid (microdialysis) and whole-brain drug levels after intravenous (IV) and intracalvariosseous (ICO) administration
Conditions: rat, in vivo

Cc1nc2n(c(=O)c1CCN1CCC(c3noc4cc(F)ccc34)CC1)CCCC2 [RIS, risperidone]
Cbr (brain drug concentration), ICO administration group relative to IV administration group: 115.2 times | brain-to-plasma ratio (Kp), ICO administration group relative to IV administration group: 36.3 times
